For this assay, the target named is Adenosine receptor A1 (Cavia porcellus, UniProt P47745). Briefly: Tested for adenosine A1 receptor agonistic activity by determining concentration needed to prolong the stimulus-QRS interval by 50% of the maximum response. Format: functional.

Chains of the proteins cited; added tags and fusions are not shown.
UniProt P47745, whole entry: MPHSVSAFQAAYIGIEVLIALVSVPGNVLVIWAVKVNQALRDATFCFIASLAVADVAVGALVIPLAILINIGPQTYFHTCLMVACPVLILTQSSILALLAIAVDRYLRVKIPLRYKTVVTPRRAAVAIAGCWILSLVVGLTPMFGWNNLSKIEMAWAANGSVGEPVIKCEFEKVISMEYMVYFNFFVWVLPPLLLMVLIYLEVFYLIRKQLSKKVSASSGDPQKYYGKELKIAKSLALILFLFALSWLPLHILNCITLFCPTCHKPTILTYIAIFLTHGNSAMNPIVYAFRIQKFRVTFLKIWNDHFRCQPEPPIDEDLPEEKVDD

One may read the EC50 as the concentration giving half of the maximal effect. Low readings indicate a more potent agent, high ones a less potent agent. In turn, `COc1ccc(/C=N/Nc2nc(N)c3ncn([C@@H]4O[C@H](CO)[C@@H](O)[C@H]4O)c3n2)cc1` had an EC50 of 22.9 µM. That is a double-digit micromolar value.

The values are drawn from ChEMBL document CHEMBL1126102, “2-(N'-aralkylidenehydrazino)adenosines: potent and selective coronary vasodilators” (J Med Chem, 1992).
